In patent US5932483A, “Synthetic peptide and its uses” (Northwestern University, priority 1996, dated 1999):
No end group written: not given here.

Legend:
[1] = tested on: binding of rabbit Ig-HRP by solid phase Protein A; assay: Inhibition of binding of Ig-HRP to solid phase Protein A
Method: Protein A (recombinant Protein A from Repligen, Cambridge, Mass.) diluted to 1 μg/ml in coating buffer (0.1M NaHCO3, pH 9.0) was incubated in the wells of a microtiter plate (100 μl per well) for 2 hours at 37° C. Uncoated surfaces of the wells were blocked by adding 340 μl PBSC (9 mM Na2 HPO4, 1 mM NaH2 PO4, pH 7.2, 154 mM NaCl, 1 mg/ml casein or ovalbumin, and 0.01% thimerosal), incubating the plate 1 hour at 37° C., and then washing the wells 3 times with PBSCT (PBSC plus 0.1% Tween 20 (polyoxyethylene sorbitan monolaurate)). […] OPD substrate buffer (0.8 mg/ml o-phenylenediamine, 0.1M Na2 HPO4, 0.05M sodium citrate, pH 5.5, plus 0.15% (v/v) H2 O2) was then added to the wells (100 μl/well), and the resultant colored product was measured with a Titertek Multiskan plate reader using a 414 nm filter.
The wells of a microtiter plate were coated with Protein A as described above in Part A. Ig-HRP diluted 1:5000 in PBS (the dilution determined by the protein A titration experiment of Part A; original Ig-HRP concentration of 3.3 mg/ml) was preincubated with various concentrations of CBP2 for 1 hour at 37° C. before 100 μl of the incubation mixture were added to each well of the microtiter plate. […] OPD substrate buffer was then added (100 μl/well), and the resulting colored product was measured at 414 nm in a Titertek Multiskan plate reader. […]

[2] = tested on: binding of rabbit Ig-HRP to solid phase C1q; assay: Inhibition of binding of Ig-HRP to solid phase C1q
Method: C1q (gift of Dr. Lawrence Potempa, Immtech International Inc., Evanston, Ill.) diluted to 10 μg/ml in coating buffer was placed in the wells of a microtiter plate (100 μl/well) and incubated for 2 hours at 25° C. The uncoated surfaces of the wells were blocked by adding 340 μl PBSC and incubating the plate for 1 hour at 25° C., followed by washing 3 times with PBSC. Dilutions of Ig-HRP in C1q buffer (50 mM Tris, pH 7.2, 27 mM NaCl, 1 mM CaCl2, 0.01% (wt/v) Thimerosal) were incubated in the wells (100 μl/well) for 1 hour at 25° C. followed by washing 3 times with C1q buffer. OPD substrate buffer was then added (100 μl/well), and the colored product was measured at 414 nm in a Titertek Multiskan plate reader.
C1q was coated onto the surface of the wells of a microtiter plate as described in Part C. […] OPD substrate buffer (100 μl/well) was then added and the colored product measured at 414 nm in a Titertek Mutiskan plate reader.

[3] = Solubility of CBP2 in aqueous solvents / DMF; assay type: physicochemical
Method: In addition to the purification performed by Biosearch, the peptide was further purified by gel filtration chromatography. […] Due to the high hydrophobic character of the solvent, Sephadex G25 (Pharmacia, Piscataway, N.J.) was used for the chromatography. A column of dimensions 0.7×40 cm was poured and equilibrated with 1% (v/v) DMF in distilled water (dH2 O). A 2 mg/ml sample of CBP2 was prepared in 50% (v/v) DMF, and 1 ml of the sample was loaded on the column and eluted with 1% DMF at a flow rate of 1 ml/15 min. One ml fractions were collected.
A 1.2 fold increase in peptide purity with a 41% yield of peptide was obtained.

Question: With “LEQGENVFLQATLLC [CBP2, C1q B chain residues 189-200 plus Leu Leu Cys at the carboxyl terminus]” as the sequence, how does the “fold greater 50% inhibition concentration of CBP2 than solution phase Protein A” value [1] read?
Answer: 1000 fold

Question: And the “fold difference of 50% inhibition concentration, CBP2 versus liquid phase C1q” value [2]?
Answer: 1000 fold

Question: And the “solubility in aqueous solvents” value ([3]; lyophilized CBP2, required 50% (v/v) DMF to completely dissolve)?
Answer: not soluble in aqueous solvents

Question: What about the “solubility in 1% (V/V) DMF” value ([3]; purified CBP2) of the same sequence?
Answer: readily soluble
